Assay: Farnesol loading of micelles (turbidity, HPLC)

poly(dimethylaminoethyl methacrylate)-b-poly(dimethylaminoethyl methacrylate-co-propylacrylic acid-co-butyl methacrylate) [NPC]
farnesol concentration within nanoparticles relative to its solubility limit: ~440 times
